Experimental data reported in ChEMBL document CHEMBL1138716, “Carbonic anhydrase inhibitors. Inhibition of the prokariotic beta and gamma-class enzymes from Archaea with sulfonamides” (Bioorg Med Chem Lett, 2004).

Legend:
[1] = biological target: T1, Carbonic anhydrase (Methanosarcina thermophila, UniProt P40881)
T1 sequence (P40881 whole entry): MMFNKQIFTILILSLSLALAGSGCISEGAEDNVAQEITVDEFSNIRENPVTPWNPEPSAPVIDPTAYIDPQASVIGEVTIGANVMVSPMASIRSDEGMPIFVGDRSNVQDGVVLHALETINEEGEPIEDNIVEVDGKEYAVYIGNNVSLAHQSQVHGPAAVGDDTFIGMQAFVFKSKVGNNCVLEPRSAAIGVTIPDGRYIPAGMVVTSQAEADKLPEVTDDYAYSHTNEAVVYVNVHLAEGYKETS

[2] = biological target: T2, Carbonic anhydrase (Methanobacterium thermoautotrophicum, UniProt Q50565)
T2 sequence (Q50565 whole entry): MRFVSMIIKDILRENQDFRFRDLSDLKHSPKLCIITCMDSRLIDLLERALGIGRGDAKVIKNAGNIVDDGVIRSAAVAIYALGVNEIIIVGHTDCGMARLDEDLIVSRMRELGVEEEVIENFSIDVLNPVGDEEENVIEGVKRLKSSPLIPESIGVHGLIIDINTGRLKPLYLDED

- Ki [1]: 0.61 µM
- Ki [2]: 62.1 µM
SMILES: Nc1cc(Cl)c(S(N)(=O)=O)cc1S(N)(=O)=O
